Data taken from patent US12037361B2, “Methods for treating multidrug resistant breast cancer” (THE HONG KONG POLYTECHNIC UNIVERSITY, priority 2021, dated 2024).

Tested on: MCF7 human breast cancer xenograft
Test: In vivo efficacy study in MCF7 breast cancer xenograft model
Settings: i.v. once every 2 days, 10 injections, DOX 1.2 mg/kg, DRI-TAT-SP 25 mg/kg
Protocol: Data obtained are analyzed to evaluate treatment outcomes. Tumor doubling time is calculated using tumor volumes obtained from the end of experiment versus the tumor volumes on the first day of treatment. Tumor inhibition (%) is calculated using the tumor volumes obtained from the end of experiment. Corresponding equations of determining tumor inhibition (T/C) and tumor doubling time (Td) are provided as follows:
(Q) In Vivo Efficacy Study of DRI-TAT-SP Combined with DOX in Treating MCF7 Breast Cancer Xenograft Model:
Six- to eight-week-old female Balb/c nude mice were maintained under specific pathogen-free conditions prior to in vivo efficacy study. Each animal was implanted with a piece of […] pellet 0.72 mg, 60-day release. (Cat No. SE-121, Innovative Research of America, Sarasota, FL). Four days later, the nude mice were inserted at the both flanks with a sesame sized (around 10 mm^3) MCF-7 tumor piece originated from a tumor bulk. […] Tumor volume was measured using digital caliper once every 4 days. Estimated tumor volume (mm^3) was calculated as ½×length (mm)×width (mm)^2. The mouse body weights were recorded once every two days. The tumor doubling time (Td) was calculated as t×log 2/log(Vf/V0), where t, Vf and V0 stand for interval time, percentage change of tumor volume on final day and percentage change of tumor volume on initial day.

With `COc1cccc2c1C(=O)c1c(O)c3c(c(O)c1C2=O)C[C@@](O)(C(=O)CO)C[C@@H]3O[C@H]1C[C@H](N)[C@H](O)[C@H](C)O1` [Doxorubicin, reference compound] the “Tumor doubling time” value was 14.8 days.
